The text below walks through data of PubChem BioAssay AID1671463 (Sanford-Burnham Center for Chemical Genomics, 2021).

Amino acid sequences for entries named in this document (tags omitted).
UniProt P16066, whole entry: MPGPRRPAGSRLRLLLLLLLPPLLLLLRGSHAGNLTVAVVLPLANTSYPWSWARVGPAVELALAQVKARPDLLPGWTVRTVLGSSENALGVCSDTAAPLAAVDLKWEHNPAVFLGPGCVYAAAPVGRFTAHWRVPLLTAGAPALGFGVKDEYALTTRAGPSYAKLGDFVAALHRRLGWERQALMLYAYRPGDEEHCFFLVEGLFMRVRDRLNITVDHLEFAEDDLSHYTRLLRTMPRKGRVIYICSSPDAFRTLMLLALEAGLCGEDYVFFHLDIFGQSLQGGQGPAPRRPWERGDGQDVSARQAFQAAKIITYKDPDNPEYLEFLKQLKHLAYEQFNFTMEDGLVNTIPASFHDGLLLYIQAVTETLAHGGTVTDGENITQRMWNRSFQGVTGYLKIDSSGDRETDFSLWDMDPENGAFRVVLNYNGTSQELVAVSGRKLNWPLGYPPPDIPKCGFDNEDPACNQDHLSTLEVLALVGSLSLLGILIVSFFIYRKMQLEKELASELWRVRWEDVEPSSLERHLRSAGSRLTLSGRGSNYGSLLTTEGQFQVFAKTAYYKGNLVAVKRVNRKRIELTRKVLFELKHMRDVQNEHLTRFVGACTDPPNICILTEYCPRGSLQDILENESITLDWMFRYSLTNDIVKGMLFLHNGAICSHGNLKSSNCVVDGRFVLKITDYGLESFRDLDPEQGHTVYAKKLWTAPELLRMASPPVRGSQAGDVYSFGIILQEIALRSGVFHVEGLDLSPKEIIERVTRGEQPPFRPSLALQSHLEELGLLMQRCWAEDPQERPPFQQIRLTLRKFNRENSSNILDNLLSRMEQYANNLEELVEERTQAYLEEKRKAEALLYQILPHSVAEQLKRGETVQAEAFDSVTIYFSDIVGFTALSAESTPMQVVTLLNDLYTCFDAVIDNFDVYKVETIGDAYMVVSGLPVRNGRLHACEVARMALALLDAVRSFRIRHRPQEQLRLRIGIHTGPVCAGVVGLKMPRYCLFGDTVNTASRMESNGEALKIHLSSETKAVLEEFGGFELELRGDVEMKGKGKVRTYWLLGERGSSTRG

The list shows a part of the results, in another mix than the full data. Some results for these compounds are left out of this collection, so the calls shown say nothing about other tests. Active and inactive are the calls of the source. No stated cut-off is given here; in the data, active means activation above about 40%; inactive means the rest.

This test deals with Atrial natriuretic peptide receptor 1 (Homo sapiens) (UniProt P16066). As to the kind of experiment: GC-A stimulated cGMP production enhancers – HEK293 GC-A cells, cGMP TR-FRET, EC30 ANP, primary screen (AID 1671463). Particulars: at 10 µM, active compounds read high, 0% at EC30 ANP, 100% saturating ANP. (In general: Time-resolved FRET reads energy transfer from a long-lived donor to a nearby acceptor.)
Regarding `COc1ccc(Br)c(C(=O)NCC2(N3CCCCC3)CCCCC2)c1`, the activation was inactive: 0.58%. The value for `C=C(C)C#CC(O)(C(=O)OC1CCN(C)CC1)c1ccccc1` (stereo unspecified) was inactive: -4.23%; that for `CN(C)c1cccc(C(=O)NCC2(N(C)C)CCCCC2)c1` was inactive: -4.23%; that for `CC(C)Oc1ccc(C(=O)NCC2(N(C)C)CCCCC2)cc1` was inactive: 1.79%. The result for `O=C(OCCN1CCCC1)C(O)(c1ccccc1)c1ccccc1` reads inactive: -1.18%; that for `O=C(OC1CN2CCC1CC2)C(CO)(c1ccccc1)c1ccccc1` (stereo unspecified), inactive: -4.72%; that for `COc1cccc(C(=O)NCC2(N3CCCCC3)CCCCC2)c1`, inactive: -1.87%. In the case of `COc1ccc(Cl)cc1C(=O)NCC1(N(C)C)CCCCC1`, the activation is inactive: -2.04%. For `O=C(NCC1(N2CCCCC2)CCCCC1)c1cccc(Cl)c1`, the activation was inactive: 2.26%. In the case of `CN(C)C1(CNC(=O)c2ccc(Br)cc2)CCCCC1`, the activation was inactive: 2.9%. The value for `COc1cc(C(=O)NCC2(N(C)C)CCCCC2)c([N+](=O)[O-])cc1OC` was inactive: 6.22%. In the case of `C=CCN1CCN(CCOC(=O)C(O)(c2ccccc2)c2ccccc2)CC1`, the activation is inactive: -0.29%. The result for `O=C(NCC1(N2CCCCC2)CCCCC1)c1cc(F)c(F)cc1Cl` reads inactive: 3.98%. The value for `CCN1CCCC(OC(=O)C2(O)c3ccccc3C=Cc3ccccc32)C1` (stereo unspecified) was inactive: -21.2%; that for `Cc1cc(C(=O)NCC2(N3CCCCC3)CCCCC2)ccc1[N+](=O)[O-]` was inactive: 1.7%; that for `O=C(NCC1(N2CCCCC2)CCCCC1)c1cccc(Br)c1` was inactive: -7.46%. The result for `COc1ccc(C(=O)NCC2(N(C)C)CCCCC2)cc1` reads inactive: -1.49%; that for `Cc1ccccc1C(=O)NCC1(N2CCCCC2)CCCCC1`, inactive: 5.24%; that for `CN(C)c1ccc(C(=O)NCC2(N(C)C)CCCCC2)cc1`, inactive: -0.94%. As for `CN(C)C1CCCC1OC(=O)C(O)(c1ccccc1)c1ccccc1` (stereo unspecified), the activation was inactive: -3.79%. The value for `CC(C)N1C(=O)CC2(CCN(CCOC(=O)C(O)(c3ccccc3)c3ccccc3)CC2)C1=O` was inactive: 1.46%. The value for `CCN(CC)CC(C)C(C)OC(=O)C(O)(c1ccccc1)c1ccccc1` (stereo unspecified) was inactive: -2.7%. Regarding `COc1cc(SC)ccc1C(=O)NCC1(N(C)C)CCCCC1`, the activation was inactive: 1.98%. The result for `Cc1ccc(C(=O)NCC2(N3CCCCC3)CCCCC2)cc1` reads inactive: 3.69%; that for `O=C(NCC1(N2CCCCC2)CCCCC1)c1cc([N+](=O)[O-])ccc1Cl`, inactive: 0.14%. As to `CN1[C@@H]2CC[C@H]1CC(OC(=O)C(O)(c1ccccc1)c1ccccc1)C2` (stereo partly specified), the activation is inactive: -6.26%.
